Results on 65 molecules are retold here after PubChem BioAssay AID1825 (The Scripps Research Institute Molecular Screening Center, 2009).

“And” between values parts separate entries of the source, which are not always exact repeats. Equal values may be shown once. Only a part is listed here, and it is no random draw. The source made the active and inactive calls. Cut-off read from the data, not from the text of the source: active = inhibition above about 22%; inactive = the rest.

A short description of the experiment: IEC-6 cell viability reduction – luminescence, cytotoxicity control for KLF5 inhibitor project, primary screen (AID 1825).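 Note: 0% = plate median of test compound wells and 100% = cytotoxic reference compound wells.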 The following applies: IEC-6 cytotoxicity, at 5 µM, hits give high values.
Consider `CC(C)(C)C(=O)NC(Sc1ccncn1)C(Cl)(Cl)Cl` (stereo not given), for which the inhibition is inactive: 1.2%.

Turning to `O=[N+]([O-])c1ncn(CCn2ncnc2[N+](=O)[O-])n1`, the inhibition is inactive: -0.2%.

Take `O=[N+]([O-])c1cccc(NC2=NCC(CBr)S2)c1` (stereo not given): the inhibition is inactive: -2.2%.

As to `O=C(O)CNc1ccc([As](=O)(O)O)cc1`, the inhibition was inactive: -2.05%.

`O=C(Nc1cc([As](=O)(O)O)ccc1O)c1ccccc1`: the inhibition was inactive: -6.75%.

`Nc1ccc([As](=O)(O)c2ccc(N)cc2)cc1`: the inhibition was inactive: -3.6%.

`C[N+]1=C2C=CC=CC=C2SC12C([N+](=O)[O-])=CC([N+](=O)[O-])=C[C-]2[N+](=O)[O-]` (stereo not given): the inhibition was active: 54.6%.

With `CCN(/C(=N/P(=O)(N1CCOCC1)N1CCOCC1)N1CCOCC1)c1ccc(OC)cc1`, the inhibition was inactive: 5%.

As for `CC(C)=N/N=C(\N)N[N+](=O)[O-]`, the inhibition is inactive: -0.6%.

With `CN(C)C(=O)OCCc1n(C)cc[n+]1C`, the inhibition is inactive: 4.6%.

Consider `CC1CCN(C(=O)Oc2c(Cl)cc(Cl)c3cccnc23)CC1`, for which the inhibition is inactive: 11.2%.

As for `COc1ccc(C2=NCC(CBr)S2)cc1` (stereo not given), the inhibition is inactive: -3.8%.

With `CC(=O)N1C2C3N(C(C)=O)C1C1N(C(C)=O)C(C(N1C(C)=O)N3C(C)=O)N2C(C)=O`, the inhibition was inactive: 0.2%.

In the case of `O=[N+]([O-])c1cccc2n[nH]nc12`, the inhibition was inactive: -0.8%.

As to `Cc1ccc(NP(=O)(Oc2ccccc2)Oc2ccccc2)nc1`, the inhibition is inactive: -2%.

With `O=[N+]([O-])c1cc([N+](=O)[O-])c(CCNc2ccccc2)c([N+](=O)[O-])c1`, the inhibition was inactive: 3%.

Take `CCc1nc2c(n1)c1c(non1O)c1c2no[n+]1[O-]`: the inhibition is inactive: 6.9%.

On to `Nc1cc(N)c2nonc2c1[N+](=O)[O-]`, for which the inhibition is inactive: -7.6%.

On to `CC(C)CC(=O)NC(Sc1ccc(Cl)cc1)C(Cl)(Cl)Cl` (stereo not given), for which the inhibition is inactive: -5.6%.

In the case of `Oc1ccccc1CNc1ccccn1`, the inhibition was inactive: -14.1%.

`O=C(NC(Sc1ccncn1)C(Cl)(Cl)Cl)c1ccccc1` (stereo not given): the inhibition was inactive: 2.4%.

On to `Cc1c2non([O-])c-2c(C)[n+](=O)[n+]1[O-]`, for which the inhibition was inactive: -4.7%.

Consider `NC(=O)c1cc([N+](=O)[O-])cc([N+](=O)[O-])c1N`, for which the inhibition is inactive: 3.7%.

In the case of `Cc1ccc(N/C(=N/P(=O)(N2CCOCC2)N2CCOCC2)N2CCOCC2)cc1`, the inhibition was inactive: -3.9%.

As for `COc1ccccc1OP(=O)(Nc1ccc(C)cn1)Oc1ccccc1OC`, the inhibition was inactive: 10.2%.

With `Cc1ccc(OP(=O)(Nc2nccs2)Oc2ccc(C)cc2)cc1`, the inhibition was inactive: -4%.

In the case of `CN1CCCC(OC(=O)C(c2ccccc2)c2ccccc2)C1` (stereo not given), the inhibition was inactive: -4.2%.

As for `Clc1ccc(Cl)c(NC2=NCC(CBr)S2)c1` (stereo not given), the inhibition is inactive: -3.2%.

On to `O=[N+]([O-])c1cc([N+](=O)[O-])c(CCN2CCOCC2)c([N+](=O)[O-])c1`, for which the inhibition was inactive: -8.6%.

On to `CCN(N=Nc1nonc1N)c1nonc1N`, for which the inhibition was inactive: 0.8%.

Consider `Nc1cccc2ccc([As](=O)(O)O)cc12`, for which the inhibition is inactive: -19%.

For the molecule `CC(=O)Nc1ccc([As](=O)(O)O)cc1`, the inhibition is inactive: 1.45%.

Take `O=C(O)c1ccccc1[As](=O)(O)O`: the inhibition was inactive: -3.6%.

As to `O=P(Nc1nc2ccc(Cl)cc2s1)(c1ccccc1)c1ccccc1`, the inhibition was inactive: 3.1%.

For the molecule `Cc1cc(SC(NC(=O)c2ccc(F)cc2)C(Cl)(Cl)Cl)ncn1` (stereo not given), the inhibition is inactive: 2.1%.

Regarding `CCOP(=O)(Nc1ccccc1)OCC`, the inhibition was inactive: -5.8% and inactive: -1.6%.

Take `Cc1ccc(NP(=O)(Oc2ccccc2F)Oc2ccccc2F)nc1`: the inhibition is inactive: 5%.

Consider `COC(=O)c1cc2c(s1)N=C(c1ccccc1)N(C)P2(=O)N1CCOCC1` (stereo not given), for which the inhibition is inactive: -6.1%.

On to `CC(=O)NC(SC(=S)N(CC(C)C)CC(C)C)C(Cl)(Cl)Cl` (stereo not given), for which the inhibition was inactive: 6%.

With `O=C(OC1CN2CCC1CC2)c1ccccc1` (stereo not given), the inhibition is inactive: -2.9%.

Consider `CCC(=O)N1C2C3N(C(=O)CC)C1C1N(C(=O)CC)C(C(N1C(=O)CC)N3C(=O)CC)N2C(=O)CC`, for which the inhibition is inactive: 3%.

On to `Cc1ccccc1OP(=O)(Nc1ccccn1)Oc1ccccc1C`, for which the inhibition is inactive: -0.9%.

Regarding `O=c1c2cc([N+](=O)[O-])ccc2[nH]c2c([N+](=O)[O-])cc([N+](=O)[O-])cc12`, the inhibition is inactive: -0.6%.

`CN(C)C(=O)Oc1noc2ccccc12`: the inhibition is inactive: -5.4%.

`O=C(NC1CCS(=O)(=O)C1)NP(=S)(Oc1ccccc1)Oc1ccccc1` (stereo not given): the inhibition is inactive: 4.7%.

With `CCNC(=S)/N=C(\N)N[N+](=O)[O-]`, the inhibition is inactive: -5.9%.

Take `c1ccc(-c2nn[nH]n2)c(-c2nn[nH]n2)c1`: the inhibition was inactive: -10.3%.

As for `CCOC(=O)NC(Sc1ccccc1)C(Cl)(Cl)Cl` (stereo not given), the inhibition is inactive: -5.9%.

With `Cc1ccc(NP(=O)(Oc2cccc(C)c2)Oc2cccc(C)c2)nc1`, the inhibition was inactive: 3.7%.

On to `CC(=O)c1ccc(N2CC2c2ccncc2)cc1` (stereo not given), for which the inhibition is inactive: -1.5%.

Consider `CC(=O)Nc1ccc([As](=O)(O)O)c(O)c1`, for which the inhibition was inactive: 6.4%.

In the case of `CC(=O)Nc1ccc(Oc2c([N+](=O)[O-])cc([N+](=O)[O-])cc2[N+](=O)[O-])cc1`, the inhibition was inactive: 2.3%.

`O=P1(Nc2nc3ccc(Cl)cc3s2)COc2ccccc2O1` (stereo not given): the inhibition is inactive: 7.3%.

With `CCOc1ccc(C2=NCC(CBr)S2)cc1` (stereo not given), the inhibition is inactive: 2.2%.

Take `CC(C)(C)C(=O)NC(Sc1ccccc1)C(Cl)(Cl)Cl` (stereo not given): the inhibition is inactive: 5.6%.

Regarding `O=P(Nc1nccs1)(c1ccccc1)c1ccccc1`, the inhibition is inactive: 7.3%.

Turning to `CC(C)C(=O)NC(Sc1ccccc1)C(Cl)(Cl)Cl` (stereo not given), the inhibition was inactive: 2.9%.

`c1nnnn1CCn1cnnn1`: the inhibition was inactive: -4.9%.

`O=[N+]([O-])c1ncn(CCn2cnc([N+](=O)[O-])n2)n1`: the inhibition is inactive: -3.7%.

`CC(=O)NC(SC(=S)N(C)C)C(Cl)(Cl)Cl` (stereo not given): the inhibition was inactive: 0.1%.

As to `O=[N+]([O-])c1ccc(O)c(/C=N/Nc2ccc([N+](=O)[O-])cc2[N+](=O)[O-])c1`, the inhibition is inactive: -13.9%.

As for `O=[As](O)(c1ccccc1)c1ccc(O)cc1`, the inhibition is inactive: -2.6%.

For `C(Cc1nn[nH]n1)Cc1nn[nH]n1`, the inhibition was inactive: -6.8%.

Consider `Nc1ccc([As](=O)(O)c2ccc([N+](=O)[O-])cc2)cc1`, for which the inhibition was inactive: 4.2%.

Turning to `O=C(OC1CN2CCC1CC2)c1cccc(Cl)c1` (stereo not given), the inhibition was inactive: 1%.

One may read the inhibition as the relative decrease from the control value, in per cent.
